## Antibody variant affinities, Ab-14 heavy chain, assay B

The measurements come from Li et al. 2023 (doi:10.1038/s41467-023-39022-2) through the FLAb antibody collection.

The target is the same throughout: PDVDLGDISGINAS, from the HR2 region of SARS-CoV-2 spike.

Parent scFv Ab-14: VH joined to VL by the linker GGGGSGGGGSGGGGS. Changes lie in the heavy chain CDRs alone.
VH: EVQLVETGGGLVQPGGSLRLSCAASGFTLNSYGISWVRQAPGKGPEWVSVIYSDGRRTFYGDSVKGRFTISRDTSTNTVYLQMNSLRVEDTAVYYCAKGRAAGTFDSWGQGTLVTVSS
VL: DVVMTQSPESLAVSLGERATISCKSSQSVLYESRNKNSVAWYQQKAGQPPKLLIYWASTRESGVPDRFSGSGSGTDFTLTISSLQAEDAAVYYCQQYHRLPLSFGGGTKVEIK

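Phage display of a naive human antibody library on the peptide gave the parent. These sequences belong to a second round, designed from the earlier measurements on random variants of the parent. Group labels follow the data file (Ctrl: baseline library sampled from a position-specific scoring matrix, with some repeated check sequences; Rand: our label for a block that the file lists under HC and that is probably the random mutants of the ten best first-round binders; GP: Gaussian process model; GPLM: also part of the Gaussian process libraries; HC: hill climbing; Gen: genetic algorithm; Gibbs: Gibbs sampling; a sequence that several methods proposed may carry one label only). In AlphaSeq, yeast of one mating type display the scFv and yeast of the other type display the target. Pairs that bind mate more often; barcode pairs of the diploids are counted by sequencing. Each replicate has its own calibration line, from reference interactions of the BCL2 family. Mating was done six times.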

Positions count from residue 1 of the parent VH; T28K puts K in place of T.
This list holds designs with at most six substitutions.
Values are apparent Kd, the geometric mean of the replicates that gave a signal; lower means stronger binding.
An entry "nd" has no value in the source: the pair was not observed among the diploids in any replicate. This suggests poor binding but is not conclusive.
Empty control strains, which show no peptide, gave a signal in 1% of pairings with all heavy chain designs; the median was 120 nM and 95% of these signals were weaker than 7.0 nM. No background was subtracted.
The authors' rule: three or more of the six replicates give a measured affinity, fewer mean a poor binder.
A sequence measured in both rounds can read differently, since the two assays cover different ranges.

Variant T28K N30L G61S A102I [Ctrl] showed nd (0 of 6 replicates). With R56Q F59A D62G [Ctrl] the result was nd (0 of 6 replicates). Variant T28S S31E A101Q D106S [GP_Gibbs] showed 2.9 nM (6 of 6 replicates). Variant T28K S53A F105N [GP_HC] showed 150 nM (1 of 6 replicates). Variant S31Q S53W [Ctrl] gave nd (0 of 6 replicates). With T28S S31G A101T [GPLM_Gen] the result was 18 nM (6 of 6 replicates). With T28S G61A R100Q A101T S107T [GPLM_Gen] the result was 1.5 nM (6 of 6 replicates).

Variant G55A [Ctrl] gave nd (0 of 6 replicates). Variant T28D S31T G61I R100Q [GPLM_Gibbs] gave 530 pM (6 of 6 replicates). Variant T28S S31E F59M A101N [GP_Gibbs] showed 710 pM (6 of 6 replicates). For N30D G61A S63R A101T [GP_Gen], the assay gave 8.2 nM (6 of 6 replicates). For S31M A101K [Ctrl], the assay gave nd (0 of 6 replicates). With S31E S63D [Ctrl] the result was 2.0 nM (6 of 6 replicates). Variant S31N R56D G103V S107Q [Rand] showed 140 nM (1 of 6 replicates).

Variant T28E S53A R100T S107K [GP_Gibbs] showed 1.4 nM (6 of 6 replicates). Variant G26M T28E G61I R100N [GP_Gen] showed nd (0 of 6 replicates). With R56H [Ctrl] the result was 17 nM (1 of 6 replicates). For F27N S31E G61T A101L [GP_HC], the assay gave 1.2 nM (5 of 6 replicates). Variant G61R R100Q A101T [GPLM_HC] gave 97 nM (1 of 6 replicates). For S31E F105G [Ctrl], the assay gave nd (0 of 6 replicates). Variant S31E S53W R100D G103V S107Q [Rand] showed nd (0 of 6 replicates).

Variant T28S A101T S107E [GPLM_Gen] gave 1.9 nM (6 of 6 replicates). For T28S S63D R100Q [GPLM_Gen], the assay gave 3.1 nM (6 of 6 replicates). Variant T28Q R100Q A101T S107L [GP_Gibbs] gave 12 nM (5 of 6 replicates). With T28S S31C G61D A101F [Rand] the result was 30 nM (4 of 6 replicates). Variant T28S G61C A101T [GPLM_Gen] showed nd (0 of 6 replicates). For L29M S107L [Ctrl], the assay gave nd (0 of 6 replicates). Variant G61A S63N R100Q A101E [GP_Gibbs] gave 2.1 nM (6 of 6 replicates).

For S31E F59Q G61T [GPLM_HC], the assay gave 1.7 nM (5 of 6 replicates). Variant T28D K65A R100Q S107Q [Ctrl] showed 3.6 nM (6 of 6 replicates). Variant T28S G61Q S63D R100E [GP_Gibbs] gave 3.1 nM (6 of 6 replicates). With G61A R100K A101Q [GP_Gen] the result was 1.7 nM (6 of 6 replicates). Variant S53A A101E D106K S107I [GP_HC] showed 45 nM (6 of 6 replicates). Variant T28G A101T [GPLM_Gen] showed 13 nM (6 of 6 replicates). Variant G26W S31E G61R A101T [GP_HC] gave nd (0 of 6 replicates).

For T28D T58C T104W D106N [Rand], the assay gave 320 nM (1 of 6 replicates). Variant T28D G61Q A101T S107V [GP_Gibbs] gave 1.9 nM (6 of 6 replicates). Variant G26Y S31E G61T A101F G103F [Rand] showed nd (0 of 6 replicates). Variant T28S S31D A101T S107T [GPLM_Gen] gave 600 pM (6 of 6 replicates). For T28N G61A S63K R100N [GP_Gen], the assay gave 960 pM (6 of 6 replicates). With S31D I51W F59Q Y60M G61I [Rand] the result was nd (0 of 6 replicates). With R56Q G61S [GPLM_Gen] the result was 12 nM (6 of 6 replicates).

Variant T28D S63D A101E [GP_Gen] gave 930 pM (6 of 6 replicates).

From the list, the first 6 with no signal in any replicate:

{"changes": "T28K N30L G61S A102I", "group": "Ctrl", "Kd (apparent)": "nd", "seen in": "0 of 6"}
{"changes": "R56Q F59A D62G", "group": "Ctrl", "Kd (apparent)": "nd", "seen in": "0 of 6"}
{"changes": "S31Q S53W", "group": "Ctrl", "Kd (apparent)": "nd", "seen in": "0 of 6"}
{"changes": "G55A", "group": "Ctrl", "Kd (apparent)": "nd", "seen in": "0 of 6"}
{"changes": "S31M A101K", "group": "Ctrl", "Kd (apparent)": "nd", "seen in": "0 of 6"}
{"changes": "G26M T28E G61I R100N", "group": "GP_Gen", "Kd (apparent)": "nd", "seen in": "0 of 6"}